Assay results published in patent US12171806B2, “Therapeutic regimens and methods for lowering blood glucose and/or body weight using GLP-1R and GCGR balanced agonists” (priority 2021, dated 2024).

Experiment: Phase 1 MAD study of ALT-801: adverse events (TEAEs), safety overview

## CC[C@H](C)[C@H](NC(=O)[C@H](Cc1ccccc1)NC(=O)[C@H](CCC(=O)O)NC(=O)[C@@H]1CCCCNC(=O)CC[C@H](NC(=O)[C@H](CC(=O)O)NC(=O)[C@H](CC(C)C)NC(=O)[C@H](Cc2ccc(O)cc2)NC(=O)[C@H](CCCCN)NC(=O)[C@H](CO)NC(=O)[C@H](Cc2ccc(O)cc2)NC(=O)[C@H](CC(=O)O)NC(=O)[C@H](CO)NC(=O)[C@@H](NC(=O)[C@H](Cc2ccccc2)NC(=O)[C@@H](NC(=O)CNC(=O)[C@H](CCC(N)=O)NC(=O)C(C)(C)NC(=O)[C@@H](N)Cc2c[nH]cn2)[C@@H](C)O)[C@@H](C)O)C(=O)N[C@@H](CCCCNC(=O)[C@H]2O[C@@H](OCCCCCCCCCCCCCCCCCC(=O)O)[C@H](O)[C@@H](O)[C@@H]2O)C(=O)N[C@@H](C)C(=O)N[C@@H](C)C(=O)N1)C(=O)N[C@@H](CCC(N)=O)C(=O)N[C@@H](Cc1c[nH]c2ccccc12)C(=O)N[C@@H](CC(C)C)C(=O)N[C@@H](CC(C)C)C(=O)N[C@@H](CCC(N)=O)C(=O)N[C@H](C(N)=O)[C@@H](C)O [ALT-801, pemvidutide]
M2 1.8 mg (N = 9)
  TEAE Injection site bruising; Moderate; %: (0.0%)
  TEAE Injection site bruising; Moderate; n: 0
  TEAE Injection site bruising; PLT; %: (0.0%)
  TEAE Injection site bruising; PLT; n: 0
  TEAE Injection site bruising; Severe; %: (0.0%)
  TEAE Injection site bruising; Severe; n: 0
  TEAE Injection site dermatitis; Mild; %: (11.1%)
  TEAE Injection site dermatitis; Mild; n: 1
  TEAE Injection site dermatitis; Moderate; %: (0.0%)
  TEAE Injection site dermatitis; Moderate; n: 0
  TEAE Injection site dermatitis; PLT; %: (0.0%)
  TEAE Injection site dermatitis; PLT; n: 0
  TEAE Injection site dermatitis; Severe; %: (0.0%)
  TEAE Injection site dermatitis; Severe; n: 0
  TEAE Nausea; Mild; %: (55.6%)
  TEAE Nausea; Mild; n: 5
  TEAE Nausea; Moderate; %: (11.1%)
  TEAE Nausea; Moderate; n: 1
  TEAE Nausea; PLT; %: (0.0%)
  TEAE Nausea; PLT; n: 0
  TEAE Nausea; Severe; %: (0.0%)
  TEAE Nausea; Severe; n: 0
  TEAE Palpitation; Mild; %: (0.0%)
  TEAE Palpitation; Mild; n: 0
  TEAE Palpitation; Moderate; %: (0.0%)
  TEAE Palpitation; Moderate; n: 0
  TEAE Palpitation; PLT; %: (0.0%)
  TEAE Palpitation; PLT; n: 0
  TEAE Palpitation; Severe; %: (0.0%)
  TEAE Palpitation; Severe; n: 0
  TEAE Peripheral swelling; Mild; %: (0.0%)
  TEAE Peripheral swelling; Mild; n: 0
  TEAE Peripheral swelling; Moderate; %: (0.0%)
  TEAE Peripheral swelling; Moderate; n: 0
  TEAE Peripheral swelling; PLT; %: (0.0%)
  TEAE Peripheral swelling; PLT; n: 0
  TEAE Peripheral swelling; Severe; %: (0.0%)
  TEAE Peripheral swelling; Severe; n: 0
  TEAE Rectal haemorrhage; Mild; %: (11.1%)
  TEAE Rectal haemorrhage; Mild; n: 1
  TEAE Rectal haemorrhage; Moderate; %: (0.0%)
  TEAE Rectal haemorrhage; Moderate; n: 0
  TEAE Rectal haemorrhage; PLT; %: (0.0%)
  TEAE Rectal haemorrhage; PLT; n: 0
  TEAE Rectal haemorrhage; Severe; %: (0.0%)
  TEAE Rectal haemorrhage; Severe; n: 0
  TEAE Tachycardia; Mild; %: (0.0%)
  TEAE Tachycardia; Mild; n: 0
  TEAE Tachycardia; Moderate; %: (0.0%)
  TEAE Tachycardia; Moderate; n: 0
  TEAE Tachycardia; PLT; %: (0.0%)
  TEAE Tachycardia; PLT; n: 0
  TEAE Tachycardia; Severe; %: (0.0%)
  TEAE Tachycardia; Severe; n: 0
  TEAE Tooth impacted; Mild; %: (0.0%)
  TEAE Tooth impacted; Mild; n: 0
  TEAE Tooth impacted; Moderate; %: (0.0%)
  TEAE Tooth impacted; Moderate; n: 0
  TEAE Tooth impacted; PLT; %: (0.0%)
  TEAE Tooth impacted; PLT; n: 0
  TEAE Tooth impacted; Severe; %: (0.0%)
  TEAE Tooth impacted; Severe; n: 0
  TEAE Toothache; Mild; %: (11.1%)
  TEAE Toothache; Mild; n: 1
  TEAE Toothache; Moderate; %: (0.0%)
  TEAE Toothache; Moderate; n: 0
  TEAE Toothache; PLT; %: (0.0%)
  TEAE Toothache; PLT; n: 0
  TEAE Toothache; Severe; %: (0.0%)
  TEAE Toothache; Severe; n: 0
  TEAE Vessel puncture site pain; Mild; %: (11.1%)
  TEAE Vessel puncture site pain; Mild; n: 1
  TEAE Vessel puncture site pain; Moderate; %: (0.0%)
  TEAE Vessel puncture site pain; Moderate; n: 0
  TEAE Vessel puncture site pain; PLT; %: (0.0%)
  TEAE Vessel puncture site pain; PLT; n: 0
  TEAE Vessel puncture site pain; Severe; %: (0.0%)
  TEAE Vessel puncture site pain; Severe; n: 0
  TEAE Vomiting; Mild; %: (11.1%)
  TEAE Vomiting; Mild; n: 1
  TEAE Vomiting; Moderate; %: (11.1%)
  TEAE Vomiting; Moderate; n: 1
  TEAE Vomiting; PLT; %: (0.0%)
  TEAE Vomiting; PLT; n: 0
  TEAE Vomiting; Severe; %: (0.0%)
  TEAE Vomiting; Severe; n: 0
M2 1.8 mg ALT-801 (N = 9)
  TEAE Cough, maximum severity Mild, subjects %: (0.0%)
  TEAE Cough, maximum severity Mild, subjects n: 0
  TEAE Cough, maximum severity Moderate, subjects %: (0.0%)
  TEAE Cough, maximum severity Moderate, subjects n: 0
  TEAE Cough, maximum severity PLT, subjects %: (0.0%)
  TEAE Cough, maximum severity PLT, subjects n: 0
  TEAE Cough, maximum severity Severe, subjects %: (0.0%)
  TEAE Cough, maximum severity Severe, subjects n: 0
  TEAE Dermatitis contact, maximum severity Mild, subjects %: (0.0%)
  TEAE Dermatitis contact, maximum severity Mild, subjects n: 0
  TEAE Dermatitis contact, maximum severity Moderate, subjects %: (0.0%)
  TEAE Dermatitis contact, maximum severity Moderate, subjects n: 0
  TEAE Dermatitis contact, maximum severity PLT, subjects %: (0.0%)
  TEAE Dermatitis contact, maximum severity PLT, subjects n: 0
  TEAE Dermatitis contact, maximum severity Severe, subjects %: (0.0%)
  TEAE Dermatitis contact, maximum severity Severe, subjects n: 0
  TEAE Eczema, maximum severity Mild, subjects %: (33.3%)
  TEAE Eczema, maximum severity Mild, subjects n: 3
  TEAE Eczema, maximum severity Moderate, subjects %: (0.0%)
  TEAE Eczema, maximum severity Moderate, subjects n: 0
  TEAE Eczema, maximum severity PLT, subjects %: (0.0%)
  TEAE Eczema, maximum severity PLT, subjects n: 0
  TEAE Eczema, maximum severity Severe, subjects %: (0.0%)
  TEAE Eczema, maximum severity Severe, subjects n: 0
  TEAE Hot flush, maximum severity Mild, subjects %: (0.0%)
  TEAE Hot flush, maximum severity Mild, subjects n: 0
  TEAE Hot flush, maximum severity Moderate, subjects %: (0.0%)
  TEAE Hot flush, maximum severity Moderate, subjects n: 0
  TEAE Hot flush, maximum severity PLT, subjects %: (0.0%)
  TEAE Hot flush, maximum severity PLT, subjects n: 0
  TEAE Hot flush, maximum severity Severe, subjects %: (0.0%)
  TEAE Hot flush, maximum severity Severe, subjects n: 0
  TEAE Menorrhagia, maximum severity PLT, subjects %: (0.0%)
  TEAE Menorrhagia, maximum severity PLT, subjects n: 0
  TEAE Oropharyngeal pain, maximum severity Mild, subjects %: (0.0%)
  TEAE Oropharyngeal pain, maximum severity Mild, subjects n: 0
  TEAE Oropharyngeal pain, maximum severity Moderate, subjects %: (0.0%)
  TEAE Oropharyngeal pain, maximum severity Moderate, subjects n: 0
  TEAE Oropharyngeal pain, maximum severity PLT, subjects %: (0.0%)
  TEAE Oropharyngeal pain, maximum severity PLT, subjects n: 0
  TEAE Oropharyngeal pain, maximum severity Severe, subjects %: (0.0%)
  TEAE Oropharyngeal pain, maximum severity Severe, subjects n: 0
  TEAE Papule, maximum severity Mild, subjects %: (0.0%)
  TEAE Papule, maximum severity Mild, subjects n: 0
  TEAE Papule, maximum severity Moderate, subjects %: (0.0%)
  TEAE Papule, maximum severity Moderate, subjects n: 0
  TEAE Papule, maximum severity PLT, subjects %: (0.0%)
  TEAE Papule, maximum severity PLT, subjects n: 0
  TEAE Papule, maximum severity Severe, subjects %: (0.0%)
  TEAE Papule, maximum severity Severe, subjects n: 0
  TEAE Pruritus, maximum severity Mild, subjects %: (11.1%)
  TEAE Pruritus, maximum severity Mild, subjects n: 1
  TEAE Pruritus, maximum severity Moderate, subjects %: (0.0%)
  TEAE Pruritus, maximum severity Moderate, subjects n: 0
  TEAE Pruritus, maximum severity PLT, subjects %: (0.0%)
  TEAE Pruritus, maximum severity PLT, subjects n: 0
  TEAE Pruritus, maximum severity Severe, subjects %: (0.0%)
  TEAE Pruritus, maximum severity Severe, subjects n: 0
  TEAE Rash, maximum severity Mild, subjects %: (22.2%)
  TEAE Rash, maximum severity Mild, subjects n: 2
  TEAE Rash, maximum severity Moderate, subjects %: (0.0%)
  TEAE Rash, maximum severity Moderate, subjects n: 0
  TEAE Rash, maximum severity PLT, subjects %: (0.0%)
  TEAE Rash, maximum severity PLT, subjects n: 0
  TEAE Rash, maximum severity Severe, subjects %: (0.0%)
  TEAE Rash, maximum severity Severe, subjects n: 0
  TEAE Respiratory, thoracic and mediastinal disorders, maximum severity Mild, subjects %: (0.0%)
  TEAE Respiratory, thoracic and mediastinal disorders, maximum severity Mild, subjects n: 0
  TEAE Respiratory, thoracic and mediastinal disorders, maximum severity Moderate, subjects %: (0.0%)
  TEAE Respiratory, thoracic and mediastinal disorders, maximum severity Moderate, subjects n: 0
  TEAE Respiratory, thoracic and mediastinal disorders, maximum severity PLT, subjects %: (0.0%)
  TEAE Respiratory, thoracic and mediastinal disorders, maximum severity PLT, subjects n: 0
  TEAE Respiratory, thoracic and mediastinal disorders, maximum severity Severe, subjects %: (0.0%)
  TEAE Respiratory, thoracic and mediastinal disorders, maximum severity Severe, subjects n: 0
  TEAE Skin and subcutaneous tissue disorders, maximum severity Mild, subjects %: (44.4%)
  TEAE Skin and subcutaneous tissue disorders, maximum severity Mild, subjects n: 4
  TEAE Skin and subcutaneous tissue disorders, maximum severity Moderate, subjects %: (0.0%)
  TEAE Skin and subcutaneous tissue disorders, maximum severity Moderate, subjects n: 0
  TEAE Skin and subcutaneous tissue disorders, maximum severity PLT, subjects %: (0.0%)
  TEAE Skin and subcutaneous tissue disorders, maximum severity PLT, subjects n: 0
  TEAE Skin and subcutaneous tissue disorders, maximum severity Severe, subjects %: (0.0%)
  TEAE Skin and subcutaneous tissue disorders, maximum severity Severe, subjects n: 0
  TEAE Skin lesion, maximum severity Mild, subjects %: (11.1%)
  TEAE Skin lesion, maximum severity Mild, subjects n: 1
  TEAE Skin lesion, maximum severity Moderate, subjects %: (0.0%)
  TEAE Skin lesion, maximum severity Moderate, subjects n: 0
  TEAE Skin lesion, maximum severity PLT, subjects %: (0.0%)
  TEAE Skin lesion, maximum severity PLT, subjects n: 0
  TEAE Skin lesion, maximum severity Severe, subjects %: (0.0%)
  TEAE Skin lesion, maximum severity Severe, subjects n: 0
  TEAE Vascular disorders, maximum severity Mild, subjects %: (0.0%)
  TEAE Vascular disorders, maximum severity Mild, subjects n: 0
  TEAE Vascular disorders, maximum severity Moderate, subjects %: (0.0%)
  TEAE Vascular disorders, maximum severity Moderate, subjects n: 0
